# Tested on: HepatoPac™-Kupffer cell co-cultures
# Assay: IL-6 secretion after cytokine exposure of HepatoPac-Kupffer cell co-cultures
# Format: cell-based, human
# Settings: 2 or 4 day treatment
# Experimental: Cultures were exposed to IL-2, IL-1B and TNF-α and secretion of IL-6 into the culture supernatant was measured. […] IL-2 and TNF-α had no effect on IL-6 secretion.
substance,measurement,value
IL-2: cytokine,IL-6 secretion into the culture supernatant,no effect

# Reference: patent US20160363584A1, “SYSTEMS AND METHODS FOR STUDYING INFLAMMATION-DRUG INTERACTIONS” (Hepregen Corporation, priority 2012, published 2016)
